# scFv variants of Ab-14 (light chain) against a SARS-CoV-2 spike peptide

All variants were tested on one target, the spike HR2 peptide PDVDLGDISGINAS (SARS-CoV-2).

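Phage display of a naive human antibody library on the peptide gave the parent. The library (AAYL50) carries one to three amino acid substitutions per variant, with no insertions or deletions. Affinity was read by AlphaSeq, a pooled yeast mating assay with surface-displayed partners. Binding brings cells together so that they mate, and sequencing counts the barcode pairs among the diploids. Scores were corrected for input abundance and mapped to Kd with protein pairs of known affinity run in the same pool. There are three technical replicates.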

The variants keep the heavy chain, the linker and the frameworks of Ab-14 (scFv order VH, a 15-residue (Gly4Ser)3 linker, VL).
VH: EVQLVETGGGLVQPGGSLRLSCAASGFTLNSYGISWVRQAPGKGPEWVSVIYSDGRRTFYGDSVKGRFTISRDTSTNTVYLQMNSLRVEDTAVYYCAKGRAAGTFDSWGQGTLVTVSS
VL: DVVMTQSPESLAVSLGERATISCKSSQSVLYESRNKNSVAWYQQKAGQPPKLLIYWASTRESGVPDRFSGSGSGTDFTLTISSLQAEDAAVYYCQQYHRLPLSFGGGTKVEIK

The whole VL of each variant is written out. All variants listed here change W56 of the VL, counted from its first residue. The Kd shown is the geometric mean over detected replicates; a lower Kd is a better binder. An entry "no signal" has no value in the source: the pair was not observed among the diploids in any replicate. This suggests poor binding but is not conclusive. Order: sorted from the lowest average up, undetected variants last. In this assay the parent's reference entry averaged 4.4 nM; its copy inside this library read 48 nM. Empty control strains, which show no peptide, gave a signal in 18% of pairings with library AAYL50; the median was 15 µM and 95% of these signals were weaker than 970 nM. No background was subtracted.

Variant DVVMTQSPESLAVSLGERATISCKQSQSVLYESRNKNSVAWYQQKAGQPPKLLIYDASTRESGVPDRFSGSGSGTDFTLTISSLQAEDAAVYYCQQYHRLPLSFGGGTKVEIK gave 220 pM (3 of 3 replicates). Variant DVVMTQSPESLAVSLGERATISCKFSQSVLYEERNKNSVAWYQQKAGQPPKLLIYSASTRESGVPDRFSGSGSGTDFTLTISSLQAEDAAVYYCQQYHRLPLSFGGGTKVEIK showed 390 pM (3 of 3 replicates). For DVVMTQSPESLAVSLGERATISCKSSQSILYESRNKNSVAWYQQKAGQPPKLLIYKASTRESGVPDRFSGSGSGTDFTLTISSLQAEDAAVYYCQQYKRLPLSFGGGTKVEIK, the assay gave 1.0 nM (3 of 3 replicates). Variant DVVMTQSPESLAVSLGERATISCASSQSVLYESRNKNSVAWYQQKAGQPPKLLIYAASTRENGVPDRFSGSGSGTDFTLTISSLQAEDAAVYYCQQYHRLPLSFGGGTKVEIK gave 1.2 nM (3 of 3 replicates). With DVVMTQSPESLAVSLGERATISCKSSQSVLYESRNKNSVAWYQQKAGQPPKLLIYEAGTRERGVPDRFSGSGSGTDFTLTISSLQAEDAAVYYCQQYHRLPLSFGGGTKVEIK the result was 1.3 nM (3 of 3 replicates). Variant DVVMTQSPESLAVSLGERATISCLSSQSVLIESRNKNSVAWYQQKAGQPPKLLIYGASTRESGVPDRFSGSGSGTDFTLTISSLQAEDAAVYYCQQYHRLPLSFGGGTKVEIK showed 1.4 nM (3 of 3 replicates). Variant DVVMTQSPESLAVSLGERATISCDSSQSVLYESRNKNSVAWYQQKAGQPPKLLIYGASTRESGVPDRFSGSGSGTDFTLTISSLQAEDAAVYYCQQYHRIPLSFGGGTKVEIK gave 2.0 nM (3 of 3 replicates).

Variant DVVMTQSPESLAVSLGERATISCKSSISVLYESRNKNSVAWYQQKAGQPPKLLIYNASTRESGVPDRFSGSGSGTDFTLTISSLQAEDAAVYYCQQYHRLPLSFGGGTKVEIK gave 2.1 nM (3 of 3 replicates). With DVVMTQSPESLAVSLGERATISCKSSQSVLYESRNKNSVAWYQQKAGQPPKLLIYHAVTRESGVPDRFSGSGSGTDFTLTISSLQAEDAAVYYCQQYHHLPLSFGGGTKVEIK the result was 2.6 nM (3 of 3 replicates). For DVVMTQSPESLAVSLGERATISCKSSQTMLYESRNKNSVAWYQQKAGQPPKLLIYRASTRESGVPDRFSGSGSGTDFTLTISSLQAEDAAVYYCQQYHRLPLSFGGGTKVEIK, the assay gave 2.7 nM (3 of 3 replicates). With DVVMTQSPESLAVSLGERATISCASSQSVLYESRNKNSVAWYQQKAGQPPKLLIYGASTRESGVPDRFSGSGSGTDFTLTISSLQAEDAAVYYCQQYHRIPLSFGGGTKVEIK the result was 2.7 nM (3 of 3 replicates). With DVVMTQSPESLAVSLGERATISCKCSQSVLYESRNKNSVAWYQQKAGQPPKLLIYKASCRESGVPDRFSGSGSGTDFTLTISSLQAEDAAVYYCQQYHRLPLSFGGGTKVEIK the result was 2.8 nM (3 of 3 replicates). Variant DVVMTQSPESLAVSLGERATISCKSSQSVLYESRAKNSVAWYQQKAGQPPKLLIYAASTRESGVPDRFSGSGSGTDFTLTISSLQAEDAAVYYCQIYHRLPLSFGGGTKVEIK showed 8.0 nM (3 of 3 replicates). With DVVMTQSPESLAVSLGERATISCKSSQKVLYESRNKNSVAWYQQKAGQPPKLLIYDASTRESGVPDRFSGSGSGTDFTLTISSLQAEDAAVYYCQQYHRLPLWFGGGTKVEIK the result was 8.1 nM (3 of 3 replicates).

For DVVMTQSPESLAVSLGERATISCKSSQSVLYESRNKNSVAWYQQKAGQPPKLLIYAASTRESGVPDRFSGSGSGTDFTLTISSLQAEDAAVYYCQQVHRLPLNFGGGTKVEIK, the assay gave 30 nM (3 of 3 replicates). For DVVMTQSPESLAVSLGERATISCKSSLSVLYESRNKNSVAWYQQKAGQPPKLLIYKASSRESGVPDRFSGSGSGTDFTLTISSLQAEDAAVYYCQQYHRLPLSFGGGTKVEIK, the assay gave 37 nM (3 of 3 replicates). Variant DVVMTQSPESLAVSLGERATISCKSSQSVLYESRNKNSVAWYQQKAGQPPKLLIYFASFRESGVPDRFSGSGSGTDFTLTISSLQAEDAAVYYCQQYHRLPLSFGGGTKVEIK showed 50 nM (3 of 3 replicates). Variant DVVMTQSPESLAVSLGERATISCKSSQSVLYESRNKNSVAWYQQKAGQPPKLLIYNASTRKSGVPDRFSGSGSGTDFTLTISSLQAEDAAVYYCEQYHRLPLSFGGGTKVEIK gave 63 nM (1 of 3 replicates). Variant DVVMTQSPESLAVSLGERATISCKSSQSVLYESKNKNSVAWYQQKAGQPPKLLIYCASTREEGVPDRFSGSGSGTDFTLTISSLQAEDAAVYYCQQYHRLPLSFGGGTKVEIK gave 93 nM (3 of 3 replicates). With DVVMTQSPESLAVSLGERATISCKSSQSVLYESRWKNPVAWYQQKAGQPPKLLIYKASTRESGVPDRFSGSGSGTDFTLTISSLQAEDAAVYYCQQYHRLPLSFGGGTKVEIK the result was 350 nM (3 of 3 replicates). Variant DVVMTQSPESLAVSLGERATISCKSSQSVLYESRNLNSVAWYQQKAGQPPKLLIYLASTRERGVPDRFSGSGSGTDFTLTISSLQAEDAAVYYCQQYHRLPLSFGGGTKVEIK showed 1.4 µM (3 of 3 replicates).

For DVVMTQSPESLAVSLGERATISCKSSQSVLYESRNKNSWAWYQQKAGQPPKLLIYFASTRESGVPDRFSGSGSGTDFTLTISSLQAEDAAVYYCQQYHRLPLVFGGGTKVEIK, the assay gave 5.6 µM (2 of 3 replicates). With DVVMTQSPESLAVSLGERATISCKSSQSVLYESRNKNSVAWYQQKAGQPPKLLIYDASTRESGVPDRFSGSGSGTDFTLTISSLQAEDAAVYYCDQYHRLPLSFGGGTKVEIK the result was no signal (0 of 3 replicates). For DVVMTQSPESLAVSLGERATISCKSSQSVLYESRNKNQVAWYQQKAGQPPKLLIYYASTRESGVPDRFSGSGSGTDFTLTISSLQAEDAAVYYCDQYHRLPLSFGGGTKVEIK, the assay gave no signal (0 of 3 replicates). Variant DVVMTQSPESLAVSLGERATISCKSSQSNLYESRNKNSVAWYQQKAGQPPKLLIYIASTRESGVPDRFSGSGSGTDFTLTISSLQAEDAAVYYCTQYHRLPLSFGGGTKVEIK showed no signal (0 of 3 replicates). Variant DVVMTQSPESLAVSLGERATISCKSSQSVLRESRNLNSVAWYQQKAGQPPKLLIYSASTRESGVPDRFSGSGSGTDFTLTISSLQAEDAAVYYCQQYHRLPLSFGGGTKVEIK gave no signal (0 of 3 replicates).

Excerpt, the final 3 entries:

VL	Kd (apparent)	replicates with signal
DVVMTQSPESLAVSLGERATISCKSSQSVLYESRNKNQVAWYQQKAGQPPKLLIYYASTRESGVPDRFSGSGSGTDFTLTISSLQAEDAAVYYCDQYHRLPLSFGGGTKVEIK	no signal	0 of 3
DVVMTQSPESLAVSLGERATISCKSSQSNLYESRNKNSVAWYQQKAGQPPKLLIYIASTRESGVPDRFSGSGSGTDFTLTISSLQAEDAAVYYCTQYHRLPLSFGGGTKVEIK	no signal	0 of 3
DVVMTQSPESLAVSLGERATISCKSSQSVLRESRNLNSVAWYQQKAGQPPKLLIYSASTRESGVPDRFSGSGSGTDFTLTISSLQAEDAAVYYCQQYHRLPLSFGGGTKVEIK	no signal	0 of 3

Data: MIT Lincoln Laboratory AlphaSeq set, Engelhart et al. 2022, doi:10.1038/s41597-022-01779-4, as distributed in FLAb.